The values that follow are results of earlier work, collected in US7309497B2, “Injectable pharmaceutical composition for systematic administration of pharmacologically active ingredients” (Schwarz Pharma AG, priority 2000, dated 2007).

For this data set the following is noted: injected in an aqueous solution; cited from earlier work.

On to insulin, for which the half-time value result is “about 6 minutes”.
